The text below walks through data of the supplement of paper PMC11403291.

Amino acid sequences for entries named in this document (tags omitted). A change or cut given only in a name is not applied to a line headed by its entry.
UniProt P49759: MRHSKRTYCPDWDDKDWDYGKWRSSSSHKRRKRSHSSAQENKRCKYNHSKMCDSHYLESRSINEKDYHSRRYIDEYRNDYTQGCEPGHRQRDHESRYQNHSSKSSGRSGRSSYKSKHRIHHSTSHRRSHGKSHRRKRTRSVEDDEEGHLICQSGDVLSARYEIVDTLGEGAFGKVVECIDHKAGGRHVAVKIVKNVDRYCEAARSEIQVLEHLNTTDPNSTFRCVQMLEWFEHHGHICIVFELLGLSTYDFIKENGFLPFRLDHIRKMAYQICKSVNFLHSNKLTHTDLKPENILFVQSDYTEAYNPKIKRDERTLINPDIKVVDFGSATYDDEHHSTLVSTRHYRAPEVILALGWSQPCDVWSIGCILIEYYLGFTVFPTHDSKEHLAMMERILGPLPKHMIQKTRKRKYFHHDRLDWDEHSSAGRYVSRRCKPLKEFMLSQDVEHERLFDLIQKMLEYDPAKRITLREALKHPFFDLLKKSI
UniProt Q15303, whole entry: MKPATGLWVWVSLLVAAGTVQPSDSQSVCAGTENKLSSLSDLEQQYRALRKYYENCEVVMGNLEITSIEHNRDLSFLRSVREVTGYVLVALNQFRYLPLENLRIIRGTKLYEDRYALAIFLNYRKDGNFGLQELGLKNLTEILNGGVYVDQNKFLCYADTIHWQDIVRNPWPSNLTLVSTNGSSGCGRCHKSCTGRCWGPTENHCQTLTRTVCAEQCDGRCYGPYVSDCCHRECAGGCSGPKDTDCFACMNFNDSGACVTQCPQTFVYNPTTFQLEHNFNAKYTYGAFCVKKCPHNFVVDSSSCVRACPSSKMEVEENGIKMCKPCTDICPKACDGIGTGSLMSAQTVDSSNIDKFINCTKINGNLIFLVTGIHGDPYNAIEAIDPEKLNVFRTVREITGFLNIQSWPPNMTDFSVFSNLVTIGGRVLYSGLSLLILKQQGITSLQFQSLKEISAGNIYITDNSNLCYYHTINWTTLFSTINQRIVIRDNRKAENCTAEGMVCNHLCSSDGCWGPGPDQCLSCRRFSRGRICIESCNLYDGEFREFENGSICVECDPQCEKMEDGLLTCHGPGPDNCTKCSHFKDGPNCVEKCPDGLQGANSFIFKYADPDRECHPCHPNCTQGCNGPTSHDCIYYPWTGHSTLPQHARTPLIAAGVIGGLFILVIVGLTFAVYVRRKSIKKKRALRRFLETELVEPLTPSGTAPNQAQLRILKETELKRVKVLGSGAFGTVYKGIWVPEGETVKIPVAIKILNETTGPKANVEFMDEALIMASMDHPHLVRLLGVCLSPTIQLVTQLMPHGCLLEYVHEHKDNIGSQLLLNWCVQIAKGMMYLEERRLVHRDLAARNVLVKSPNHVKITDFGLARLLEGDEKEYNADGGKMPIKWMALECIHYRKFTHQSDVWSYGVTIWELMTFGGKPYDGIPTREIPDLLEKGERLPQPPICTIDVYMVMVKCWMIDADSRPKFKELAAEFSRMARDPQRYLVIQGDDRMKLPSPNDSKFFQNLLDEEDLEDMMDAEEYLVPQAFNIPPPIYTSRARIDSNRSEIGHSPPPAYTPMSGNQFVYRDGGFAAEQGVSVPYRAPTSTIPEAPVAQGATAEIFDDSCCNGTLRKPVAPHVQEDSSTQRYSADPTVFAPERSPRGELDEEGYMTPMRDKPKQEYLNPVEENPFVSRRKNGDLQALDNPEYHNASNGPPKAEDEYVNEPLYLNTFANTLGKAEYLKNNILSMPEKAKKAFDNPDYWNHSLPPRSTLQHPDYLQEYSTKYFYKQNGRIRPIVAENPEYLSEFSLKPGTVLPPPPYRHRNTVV
UniProt P35916, whole entry: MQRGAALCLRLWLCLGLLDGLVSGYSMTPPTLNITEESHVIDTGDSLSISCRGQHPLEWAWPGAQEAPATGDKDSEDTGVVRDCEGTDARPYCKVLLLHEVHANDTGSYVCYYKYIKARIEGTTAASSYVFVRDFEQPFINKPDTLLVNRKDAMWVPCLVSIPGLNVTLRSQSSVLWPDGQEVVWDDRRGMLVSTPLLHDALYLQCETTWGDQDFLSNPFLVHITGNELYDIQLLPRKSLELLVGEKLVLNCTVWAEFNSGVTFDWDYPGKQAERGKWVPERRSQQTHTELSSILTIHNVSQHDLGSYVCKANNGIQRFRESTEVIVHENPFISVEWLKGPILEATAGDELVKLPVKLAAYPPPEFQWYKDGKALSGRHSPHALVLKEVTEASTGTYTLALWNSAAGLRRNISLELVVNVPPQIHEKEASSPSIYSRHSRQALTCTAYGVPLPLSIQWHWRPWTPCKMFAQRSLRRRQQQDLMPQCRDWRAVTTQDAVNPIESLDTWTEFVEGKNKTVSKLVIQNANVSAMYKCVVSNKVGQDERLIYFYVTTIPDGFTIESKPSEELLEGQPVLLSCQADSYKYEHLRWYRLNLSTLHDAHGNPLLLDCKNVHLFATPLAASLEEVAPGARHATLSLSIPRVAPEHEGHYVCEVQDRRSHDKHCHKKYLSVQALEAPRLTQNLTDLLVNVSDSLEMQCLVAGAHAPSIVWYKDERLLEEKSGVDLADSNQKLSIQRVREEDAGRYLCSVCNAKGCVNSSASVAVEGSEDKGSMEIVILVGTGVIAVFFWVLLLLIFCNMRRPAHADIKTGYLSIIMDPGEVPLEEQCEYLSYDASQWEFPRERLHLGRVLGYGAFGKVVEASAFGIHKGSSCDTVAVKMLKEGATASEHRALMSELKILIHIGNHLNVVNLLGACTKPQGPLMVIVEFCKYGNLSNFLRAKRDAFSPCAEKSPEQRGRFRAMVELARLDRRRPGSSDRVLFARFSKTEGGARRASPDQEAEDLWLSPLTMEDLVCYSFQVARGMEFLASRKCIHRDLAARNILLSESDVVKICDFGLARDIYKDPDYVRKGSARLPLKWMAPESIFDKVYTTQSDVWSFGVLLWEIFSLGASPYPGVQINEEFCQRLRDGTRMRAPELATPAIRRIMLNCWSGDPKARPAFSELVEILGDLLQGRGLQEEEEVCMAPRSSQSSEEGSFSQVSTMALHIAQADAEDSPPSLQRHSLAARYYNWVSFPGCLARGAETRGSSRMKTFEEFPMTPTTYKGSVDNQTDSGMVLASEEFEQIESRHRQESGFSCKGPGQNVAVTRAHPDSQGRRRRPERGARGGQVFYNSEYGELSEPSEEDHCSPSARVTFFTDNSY
UniProt P49841: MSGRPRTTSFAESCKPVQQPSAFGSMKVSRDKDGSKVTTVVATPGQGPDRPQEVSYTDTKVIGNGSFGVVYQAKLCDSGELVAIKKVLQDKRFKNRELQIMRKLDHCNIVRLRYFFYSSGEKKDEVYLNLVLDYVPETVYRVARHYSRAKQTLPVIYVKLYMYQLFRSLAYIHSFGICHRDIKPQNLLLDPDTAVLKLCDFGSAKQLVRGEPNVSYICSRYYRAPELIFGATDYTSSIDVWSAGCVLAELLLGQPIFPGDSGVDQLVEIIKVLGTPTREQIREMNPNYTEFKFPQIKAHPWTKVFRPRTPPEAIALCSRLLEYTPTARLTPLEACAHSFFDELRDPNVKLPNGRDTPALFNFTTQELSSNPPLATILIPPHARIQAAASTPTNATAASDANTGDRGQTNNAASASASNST
UniProt P06239: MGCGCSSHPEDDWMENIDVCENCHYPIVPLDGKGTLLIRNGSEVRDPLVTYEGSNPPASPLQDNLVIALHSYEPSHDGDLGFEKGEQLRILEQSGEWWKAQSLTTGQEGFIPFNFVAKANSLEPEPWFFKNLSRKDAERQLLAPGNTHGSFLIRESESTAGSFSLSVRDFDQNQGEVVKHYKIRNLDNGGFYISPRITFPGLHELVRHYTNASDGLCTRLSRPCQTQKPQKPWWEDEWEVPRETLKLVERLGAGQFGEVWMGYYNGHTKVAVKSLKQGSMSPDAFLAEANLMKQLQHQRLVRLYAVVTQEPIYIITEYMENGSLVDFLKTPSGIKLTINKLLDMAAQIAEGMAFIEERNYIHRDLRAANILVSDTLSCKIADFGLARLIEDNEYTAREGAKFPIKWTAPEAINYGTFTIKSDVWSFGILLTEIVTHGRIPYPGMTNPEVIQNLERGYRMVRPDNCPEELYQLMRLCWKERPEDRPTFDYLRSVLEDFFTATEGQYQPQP
UniProt P36507, whole entry: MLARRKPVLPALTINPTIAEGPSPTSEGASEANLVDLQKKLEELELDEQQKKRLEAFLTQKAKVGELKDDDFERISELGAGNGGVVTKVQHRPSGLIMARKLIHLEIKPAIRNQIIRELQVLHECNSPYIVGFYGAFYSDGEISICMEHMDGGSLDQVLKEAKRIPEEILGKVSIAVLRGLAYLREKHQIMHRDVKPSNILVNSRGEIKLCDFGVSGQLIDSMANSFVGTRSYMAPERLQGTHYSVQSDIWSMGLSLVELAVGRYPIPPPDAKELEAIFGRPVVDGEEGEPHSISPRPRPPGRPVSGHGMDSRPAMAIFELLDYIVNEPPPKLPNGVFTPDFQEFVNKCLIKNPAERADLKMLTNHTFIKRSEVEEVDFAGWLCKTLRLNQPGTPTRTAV
UniProt Q05655: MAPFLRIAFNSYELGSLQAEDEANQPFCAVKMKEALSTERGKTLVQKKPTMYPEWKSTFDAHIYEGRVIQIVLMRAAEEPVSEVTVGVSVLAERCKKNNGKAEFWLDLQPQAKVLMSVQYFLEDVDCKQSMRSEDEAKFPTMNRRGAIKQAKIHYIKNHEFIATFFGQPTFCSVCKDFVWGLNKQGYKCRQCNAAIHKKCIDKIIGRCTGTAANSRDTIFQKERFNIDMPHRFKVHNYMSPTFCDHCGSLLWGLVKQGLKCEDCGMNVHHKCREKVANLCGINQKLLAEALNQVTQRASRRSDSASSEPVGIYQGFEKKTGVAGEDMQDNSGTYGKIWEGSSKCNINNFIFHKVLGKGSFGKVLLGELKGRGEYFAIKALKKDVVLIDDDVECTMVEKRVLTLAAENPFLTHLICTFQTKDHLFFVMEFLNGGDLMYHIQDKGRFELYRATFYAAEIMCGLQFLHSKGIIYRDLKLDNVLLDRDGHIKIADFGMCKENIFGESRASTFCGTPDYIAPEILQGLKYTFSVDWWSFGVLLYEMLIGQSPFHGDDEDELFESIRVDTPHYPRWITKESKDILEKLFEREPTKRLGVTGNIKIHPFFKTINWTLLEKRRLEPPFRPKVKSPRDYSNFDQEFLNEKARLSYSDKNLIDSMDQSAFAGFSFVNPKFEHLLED
UniProt Q13164: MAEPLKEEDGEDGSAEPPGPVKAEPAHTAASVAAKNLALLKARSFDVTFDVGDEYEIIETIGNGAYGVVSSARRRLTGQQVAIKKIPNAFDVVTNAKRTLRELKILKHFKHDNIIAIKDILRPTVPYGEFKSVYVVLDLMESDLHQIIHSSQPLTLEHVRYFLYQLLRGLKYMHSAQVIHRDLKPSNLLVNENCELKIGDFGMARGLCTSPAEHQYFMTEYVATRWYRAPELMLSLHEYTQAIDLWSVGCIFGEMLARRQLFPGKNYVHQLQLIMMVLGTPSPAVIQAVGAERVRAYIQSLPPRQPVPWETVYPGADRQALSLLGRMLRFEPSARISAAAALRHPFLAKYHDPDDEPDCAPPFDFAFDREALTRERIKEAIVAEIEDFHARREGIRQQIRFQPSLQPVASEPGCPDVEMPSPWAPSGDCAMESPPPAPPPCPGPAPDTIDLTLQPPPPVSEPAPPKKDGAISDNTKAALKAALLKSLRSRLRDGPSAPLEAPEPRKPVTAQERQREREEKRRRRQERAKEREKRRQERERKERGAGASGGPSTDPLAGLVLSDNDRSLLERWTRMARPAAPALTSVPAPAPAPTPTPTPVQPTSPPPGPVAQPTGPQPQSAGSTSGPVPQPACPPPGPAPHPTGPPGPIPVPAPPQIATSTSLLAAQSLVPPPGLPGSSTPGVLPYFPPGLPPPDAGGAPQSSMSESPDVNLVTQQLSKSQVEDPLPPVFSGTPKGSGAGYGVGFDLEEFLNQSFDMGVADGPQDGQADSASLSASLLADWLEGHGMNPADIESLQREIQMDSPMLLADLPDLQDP
UniProt Q9P1W9: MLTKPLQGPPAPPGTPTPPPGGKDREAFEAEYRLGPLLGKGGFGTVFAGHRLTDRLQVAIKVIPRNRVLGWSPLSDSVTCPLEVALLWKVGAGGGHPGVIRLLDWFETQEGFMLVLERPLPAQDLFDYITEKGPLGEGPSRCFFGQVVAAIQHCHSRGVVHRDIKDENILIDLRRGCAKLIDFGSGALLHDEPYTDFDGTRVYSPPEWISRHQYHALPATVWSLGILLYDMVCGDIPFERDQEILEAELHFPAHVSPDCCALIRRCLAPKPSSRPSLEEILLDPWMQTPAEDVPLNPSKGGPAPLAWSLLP

Targets include CLK1 (UniProt P49759); ERBB4 (UniProt Q15303); FLT4 (UniProt P35916); MINK1 (UniProt Q8N4C8); GSK3B (UniProt P49841); MELK (UniProt Q14680); LCK (UniProt P06239); MAP2K2 (UniProt P36507); PRKCD (UniProt Q05655); MAPK7 (UniProt Q13164); PIM2 (UniProt Q9P1W9).
Common to all, as to test: apparent dissociation constant pKd app (kinobead competition) (-log10(M)); higher = stronger binding
The target of a further assay is T1, TEC (UniProt P42680).
T1 sequence (whole entry): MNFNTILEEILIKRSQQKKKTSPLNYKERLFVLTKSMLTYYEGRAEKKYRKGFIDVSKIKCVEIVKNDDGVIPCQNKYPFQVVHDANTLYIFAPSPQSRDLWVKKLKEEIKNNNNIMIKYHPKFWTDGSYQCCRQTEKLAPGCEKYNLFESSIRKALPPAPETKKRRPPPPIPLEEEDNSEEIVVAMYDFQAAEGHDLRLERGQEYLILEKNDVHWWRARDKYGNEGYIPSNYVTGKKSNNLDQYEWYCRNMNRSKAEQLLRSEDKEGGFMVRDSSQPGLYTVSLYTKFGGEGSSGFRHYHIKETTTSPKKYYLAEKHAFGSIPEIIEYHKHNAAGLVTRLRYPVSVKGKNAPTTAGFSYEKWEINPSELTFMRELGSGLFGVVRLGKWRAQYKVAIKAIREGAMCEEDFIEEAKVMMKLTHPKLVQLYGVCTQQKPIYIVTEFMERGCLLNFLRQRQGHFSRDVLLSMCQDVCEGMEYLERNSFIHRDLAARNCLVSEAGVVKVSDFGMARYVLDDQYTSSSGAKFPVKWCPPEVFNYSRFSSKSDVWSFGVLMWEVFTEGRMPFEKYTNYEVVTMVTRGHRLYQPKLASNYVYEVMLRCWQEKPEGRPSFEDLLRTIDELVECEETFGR

For the next assay, the target named is T2, TAOK3 (UniProt Q9H2K8).
T2 sequence (whole entry): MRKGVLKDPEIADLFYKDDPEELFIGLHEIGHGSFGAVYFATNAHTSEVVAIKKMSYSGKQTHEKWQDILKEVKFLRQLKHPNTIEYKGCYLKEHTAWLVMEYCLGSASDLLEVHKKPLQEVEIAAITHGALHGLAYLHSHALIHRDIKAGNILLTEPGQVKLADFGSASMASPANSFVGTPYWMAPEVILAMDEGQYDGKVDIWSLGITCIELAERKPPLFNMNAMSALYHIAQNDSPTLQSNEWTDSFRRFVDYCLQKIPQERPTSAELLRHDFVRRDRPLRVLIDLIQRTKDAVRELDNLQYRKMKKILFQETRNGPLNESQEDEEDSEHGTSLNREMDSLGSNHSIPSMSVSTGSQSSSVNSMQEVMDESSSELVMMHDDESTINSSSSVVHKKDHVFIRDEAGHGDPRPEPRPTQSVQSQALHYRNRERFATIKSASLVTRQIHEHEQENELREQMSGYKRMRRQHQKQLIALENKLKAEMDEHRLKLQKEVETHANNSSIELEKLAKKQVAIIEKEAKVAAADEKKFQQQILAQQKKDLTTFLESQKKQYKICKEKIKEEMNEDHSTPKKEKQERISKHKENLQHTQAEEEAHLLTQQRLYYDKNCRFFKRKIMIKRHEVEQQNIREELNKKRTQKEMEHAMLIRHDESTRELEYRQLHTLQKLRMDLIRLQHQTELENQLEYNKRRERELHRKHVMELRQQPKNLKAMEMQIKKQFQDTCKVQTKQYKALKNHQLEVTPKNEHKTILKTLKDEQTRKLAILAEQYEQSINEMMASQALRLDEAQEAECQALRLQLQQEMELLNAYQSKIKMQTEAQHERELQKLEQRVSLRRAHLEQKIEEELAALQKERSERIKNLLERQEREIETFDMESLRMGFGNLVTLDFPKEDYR

Turning to `NC(=O)c1cccc2cn(-c3ccc([C@@H]4CCCNC4)cc3)nc12` [Niraparib], the “apparent dissociation constant pKd app (-log10)” value was under 4.7 on CLK1; under 4.5 at ERBB4; under 4.8 on TEC; under 4.7 at FLT4; under 4.6 on MINK1; under 4.8 on GSK3B. In addition, the “apparent dissociation constant pKd app (-log10)” value on MELK is under 4.7; on LCK, under 4.8; at MAP2K2 it was under 4.5; at PRKCD, under 4.5; on TAOK3 it was under 4.5; on MAPK7 it was under 4.6. Also, on PIM2, the “apparent dissociation constant pKd app (-log10)” value was under 4.6.
Take `Cn1ncnc1[C@H]1c2n[nH]c(=O)c3cc(F)cc(c23)N[C@@H]1c1ccc(F)cc1` [Talazoparib]: the “apparent dissociation constant pKd app (-log10)” value was under 4.7 on CLK1; under 4.5 at ERBB4; under 4.8 on TEC; under 4.7 at FLT4; under 4.6 at MINK1; under 4.8 at GSK3B. Also, the “apparent dissociation constant pKd app (-log10)” value at MELK was under 4.7; on LCK, under 4.8; on MAP2K2 it was under 4.5; on PRKCD, under 4.5; at TAOK3 it was under 4.5; on MAPK7 it was under 4.6. Further, the “apparent dissociation constant pKd app (-log10)” value on PIM2 was under 4.6.
As for `O=C(c1cc(Cc2n[nH]c(=O)c3ccccc23)ccc1F)N1CCN(C(=O)C2CC2)CC1` [Olaparib], the “apparent dissociation constant pKd app (-log10)” value at CLK1 was under 4.7; at ERBB4, under 4.5; at TEC it was under 4.8; at FLT4, under 4.7; on MINK1, under 4.6; on GSK3B it was under 4.8. Moreover, the “apparent dissociation constant pKd app (-log10)” value on MELK was under 4.7; at LCK, under 4.8; on MAP2K2, under 4.5; on PRKCD, under 4.5; on TAOK3 it was under 4.5; on MAPK7 it was under 4.6. Also, the “apparent dissociation constant pKd app (-log10)” value on PIM2 was under 4.6.
